The values that follow come from published antibiotic growth screens (doi:10.1038/s41589-023-01349-8).

Each structure is given as a SMILES string. Some of the results follow.

The test deals with A. baumannii ATCC 17978. Kind of test: relative growth (fraction of control); higher = less inhibition. Conditions: 50 µM.
In the case of `COC1O[C@@H]2O[C@]3(C)CC[C@H]4[C@H](C)CC[C@@H]([C@H]1C)[C@@]24OO3` (some centres undefined), the relative growth amounted to 1.11. With `CN/C(=N\C#N)NCCSCc1nc[nH]c1C` the figure was 1.1. With `C=CC[C@@H](CC(=O)N[C@H](CO)Cc1ccccc1)C(=O)N[C@H](COC(=O)[C@@H](CC=C)Cc1ccc(F)cc1)Cc1c[nH]c2ccccc12` the figure was 1.1; with `CC(=O)n1cc([C@H]2C=C(C(=O)N3CCN(C)CC3)O[C@@H](OCc3ccc(CO)cc3)C2)c2ccccc21`, 0.933; with `O=C(C[C@@H]1C[C@@H]2c3cc(NC(=O)C4CCOCC4)ccc3O[C@@H]2[C@@H](CO)O1)NCCN1CCCCC1`, 1.02. Molecule `O=C(N[C@@H]1CC[C@@H](CCNS(=O)(=O)c2ccccc2)O[C@@H]1CO)c1cnccn1` had a relative growth of 0.984. To `NC(=O)NS(=O)(=O)c1ccc(N)cc1` belongs 1.11; to `C[C@@H]1CN([C@@H](C)CO)S(=O)(=O)c2ccc(-c3cccc(C#N)c3)cc2O[C@H]1CN(C)C(=O)c1ccncc1`, 0.993; to `N[C@@H](Cc1cc(I)c(Oc2ccc(O)c(I)c2)c(I)c1)C(=O)[O-].[Na+]` [LIOTHYRONINE (L- isomer) SODIUM], 1.56.

For the molecule `COC(=O)[C@H]1CCc2nc[nH]c2C1`, the relative growth turned out to be 1.03. For `COCC#Cc1ccc2c(c1)O[C@H](CN(C)C(=O)C1CCCCC1)[C@@H](C)CN([C@H](C)CO)S2(=O)=O`, the relative growth was determined as 1.02. In turn, `NC(CSCSCC(N)C(=O)O)C(=O)O` (centres undefined) registered a relative growth of 0.959. With `OCc1ccc(-c2cccs2)cc1` the figure was 0.932; with `O=C(C[C@@H]1CC[C@H]2[C@@H](COC[C@@H](O)CN2C(=O)C2CC2)O1)NCc1ccncc1`, 1.11. To `COC(=O)C[C@@H]1CC[C@H]2[C@@H](COC[C@H](O)CN2S(=O)(=O)c2ccccc2C)O1` belongs 0.991. `Cn1nccc1NC(=O)COCC(=O)O` had a relative growth of 0.949. With `C[C@H](CO)NS(=O)(=O)c1ccnn1C` the figure was 1.14.

`COc1ccccc1-c1ccc2c(c1)O[C@H](CN(C)CC1CCOCC1)[C@H](C)CN([C@H](C)CO)S2(=O)=O` showed a relative growth of 0.921. `COCC#Cc1ccc2c(c1)O[C@@H](CN(C)Cc1ccccc1F)[C@@H](C)CN([C@@H](C)CO)S2(=O)=O` displayed a relative growth of 0.73.

`Cc1ccc(S[C@]2(C(=O)NCC(F)(F)F)CC(=O)N(Cc3ccccc3C(F)(F)F)[C@@H]2c2ccc(CO)cc2)cc1` had a relative growth of 0.959.

For the molecule `CC(C)(C)Nc1nc(=O)[nH]c(=O)[nH]1`, the relative growth stood at 1.05. To `CC(C)(C)c1ccc2c(c1)O[C@H](C(=O)N/N=C/c1ccc[nH]1)CO2.CC(C)(C)c1ccc2c(c1)O[C@H](C(=O)N/N=C\c1ccc[nH]1)CO2` belongs 1.09. With `C[C@@H]1CN([C@@H](C)CO)S(=O)(=O)c2ccc(-c3cncnc3)cc2O[C@@H]1CN(C)C(=O)Cc1cccnc1` the figure was 0.903; with `CCC(=O)Nc1ccc(C)cc1C`, 0.982. For the molecule `CC(C)NCC(O)c1cc(O)cc(O)c1` (centres undefined), the relative growth was 0.991. As for `O=c1nc[nH]c2n[nH]cc12`, the relative growth turned out to be 1.05. With `O=C(C[C@@H]1CC[C@@H]2[C@H](COC[C@H](O)CN2S(=O)(=O)c2cccc(Cl)c2)O1)NCCCN1CCOCC1` the figure was 0.871; with `O=C(C[C@@H]1CC[C@H](NC(=O)CN2CCOCC2)[C@H](CO)O1)NCCc1ccncc1`, 1.22. `COc1ccc(S(=O)(=O)N2C[C@@H](O)COC[C@@H]3O[C@H](CC(=O)NCCCN(C)C)CC[C@H]32)cc1` showed a relative growth of 1.11. To `O=C(O)CN(CCN(CC(=O)O)CC(=O)O)CCN(CC(=O)O)CC(=O)O` belongs 0.878; to `COc1ccc(-c2cc(=O)c3c(OC)c(OC)c(OC)cc3o2)cc1OC`, 0.94; to `COc1ccc([C@@H]([C@H](Cc2ccccc2)OC(C)=O)N2Cc3c(noc3[C@@H](O)c3ccccc3)[C@@H]2Cc2ccccc2)cc1`, 1.1. Molecule `CO[C@H]1CN(C)C(=O)c2cc(NS(C)(=O)=O)ccc2OC[C@H](C)N(C(=O)CN(C)C)C[C@H]1C` registered a relative growth of 1.

For the molecule `CC(C)NCC(O)COc1cccc2[nH]c3ccccc3c12` (centres undefined), the relative growth worked out at 0.923.

For `Cc1n[nH]c(NN2CCOCC2)nc1=O`, the relative growth stood at 1.05. With `Cc1noc(C)c1S(=O)(=O)NC(C)C` the figure was 0.956. `C[C@H](CO)N1C[C@H](C)[C@H](CN(C)C(=O)Nc2cc(F)ccc2F)Oc2ncc(C#CCN(C)C)cc2C1=O` gave a relative growth of 1.07. To `Cn1cnc([N+](=O)[O-])c1Sc1[nH]cnc2ncnc1-2` belongs 1.26; to `COc1ccc2c(=O)cc(-c3ccccc3)oc2c1OC`, 1.16. `CC[C@@H](CO)NCCN[C@@H](CC)CO.Cl.Cl` yielded a relative growth of 1.12. In turn, `CCNC(=O)C[C@H]1CC[C@H]2[C@@H](COC[C@H](O)CN2C(=O)Nc2c(C)noc2C)O1` had a relative growth of 1.09. With `CC(C)(C)c1n[nH]c(C(C)(C)C)c1Cc1c(F)cccc1Cl` the figure was 0.855; with `CC12CCC(=O)C=C1CCC1C2[C@@H](O)CC2(C)C1CC[C@]2(O)C(=O)COP(=O)([O-])[O-].CC[NH+](CC)CC.CC[NH+](CC)CC` (some centres undefined), 0.934; with `CCC(CCC(C)[C@H]1CCC2C3CC=C4C[C@@H](O)CC[C@]4(C)C3CC[C@@]21C)C(C)C` (stereo partly drawn) [beta-SITOSTEROL], 0.946. With `O=c1ccc(=O)n(-c2ccccc2)[nH]1` the figure was 1.12. To `COc1ccc2c(c1)O[C@H]1c3ccc(OC)cc3OC[C@@H]21` belongs 1.06. As to `CC(C)(C)c1csc(-c2ccc(-c3cccs3)s2)n1`, the relative growth was 0.975. As for `COc1cccc(CNC(=O)C[C@@H]2C=C[C@@H](NC(=O)C3CCOCC3)[C@H](CO)O2)c1`, the relative growth is 1.03. With `CCCC[C@@H](CC)COC(=O)/C=C/c1ccc(OC)cc1` the figure was 1.18; with `OC[C@@H](O)[C@@H](O[C@@H]1O[C@H](CO)[C@@H](O)[C@H](O)[C@H]1O)[C@H](O)[C@@H](O)CO`, 0.864. Regarding `COc1ccc2nc3cc(Cl)ccc3c(Nc3cc(CN4CCCC4)c(O)c(CN4CCCC4)c3)c2n1.O=P(O)(O)O.O=P(O)(O)O.O=P(O)(O)O.O=P(O)(O)O`, the relative growth is 1.15. With `COCC#Cc1ccc2c(c1)O[C@H](CN(C)C(=O)C1CCOCC1)[C@@H](C)CN([C@@H](C)CO)S2(=O)=O` the figure was 1.09. To `COc1ccc([Si](C)(C)[C@H]2[C@H](CCOC(=O)NCCCCCC(=O)NO)O[C@]3(C(=O)N(Cc4ccccc4)c4ccc(NC(=O)[C@@H](C)OC(=O)NCCCCCC(=O)NO)cc43)[C@@H]2C)cc1` belongs 0.873; to `O=C(CCCCC(=O)N/N=C/c1cc(I)cc(I)c1O)NO`, 0.585; to `CCN(CC)CCNC(=O)c1ccc(NC(C)=O)cc1.Cl`, 1.21.

With `CC(C)[C@H](N)C(=O)O`, the relative growth worked out at 1.04.

In turn, `COc1ccc(-c2cc(=O)c3c(O)cc(OC)cc3o2)cc1` registered a relative growth of 1.06. With `CC(=O)S[C@@H]1CC2=CC(=O)CC[C@]2(C)[C@H]2CC[C@@]3(C)[C@@H](CC[C@@]34CCC(=O)O4)C12` (some centres undefined) the figure was 1.12; with `O=C(CN1CCOCC1)NCC[C@H]1CC[C@@H](NS(=O)(=O)c2ccc(Cl)cc2)[C@H](CO)O1`, 1.06; with `O=C(C[C@@H]1C=C[C@H](NC(=O)c2ccc(F)cc2)[C@H](CO)O1)NCc1ccncn1`, 0.955. In turn, `O=C(/C=C/C=C/c1ccc2c(c1)OCO2)N1CCCCC1` gave a relative growth of 1.03. As to `Cc1ccc(S(=O)(=O)N[C@H]2C=C[C@@H](CC(=O)NCCN3CCCCC3)O[C@H]2CO)cc1`, the relative growth amounted to 1.09. To `C=C(C)/C=C1/C=CC(=O)C(C)=C1` belongs 0.919; to `CN(C)CCNc1cn[nH]c(=O)c1Cl`, 0.995. In the case of `[N-]=[N+]=Nc1ccccc1[C@H]1OC(c2ccc(OCCCO)cc2)=N[C@@]1(CCS(=O)(=O)c1ccccc1)C(=O)N1CCCCC1`, the relative growth stood at 1.15. In the case of `CCS(=O)(=O)Nc1ccc2c(c1)C(=O)N(C)C[C@H](OC)[C@@H](C)CN(C(=O)c1ccc3c(c1)OCO3)[C@H](C)CO2`, the relative growth stood at 1.1.

Turning to `Cc1ccc(-c2ccc3c(c2)O[C@@H](CN(C)C(=O)NC(C)C)[C@H](C)CN([C@@H](C)CO)S3(=O)=O)cc1`, the relative growth amounted to 0.788. As for `O=C(C[C@@H]1CC[C@@H]2[C@H](COC[C@H](O)CN2C(=O)Nc2cccc(F)c2)O1)NCCCN1CCOCC1`, the relative growth is 0.884. As to `O=C(O)CCCCC1CCSS1` (centres undefined), the relative growth was 0.944.

Consider `O=c1[nH]cc(Nc2ccccc2)c(=O)[nH]1`, for which the relative growth amounted to 1.18. As for `CC(=O)N(C)C[C@H]1Oc2cc(C#CCN(C)C)ccc2S(=O)(=O)N([C@H](C)CO)C[C@H]1C`, the relative growth was determined as 1.

Molecule `CN1CCN(C(=O)C[C@@H]2CC[C@H](NC(=O)Cc3ccccn3)[C@@H](CO)O2)CC1` came in with a relative growth of 1.05.

Molecule `O=C(C[C@@H]1CC[C@H]2[C@@H](COC[C@H](O)CN2S(=O)(=O)c2ccccc2F)O1)NCc1ccccc1Cl` displayed a relative growth of 0.846. For `C[C@@H]1COC(=O)N1`, the relative growth is 1.04. With `CCN(CC)S(=O)(=O)c1ccc(C(=O)O)cc1` the figure was 1.05; with `CCOc1ccc(NC(=O)CC(C)O)cc1` (centres undefined), 0.888. To `O=c1[nH]cc(/N=C/c2ccncc2)c(=O)[nH]1` belongs 1.13. With `Cc1cc(-c2ccccc2)nc(-c2ccccc2)c1C` the figure was 0.861; with `CN(C)C(=O)C[C@@H]1C=C[C@@H](NC(=O)C2CC2)[C@@H](CO)O1`, 1.01; with `O=C(NO)c1cccc(C(=O)N/N=C/c2cc(I)cc(I)c2O)c1`, 0.699. `CO[C@H]1CN(C)C(=O)c2cc(NS(=O)(=O)CC(F)(F)F)ccc2OC[C@H](C)N(Cc2cccnc2)C[C@H]1C` had a relative growth of 0.92.

Take `CCCCc1nc(Cl)c(CO)n1Cc1ccc(-c2ccccc2-c2nnn[nH]2)cc1`: the relative growth was 0.986. To `C=CCCCCCCCCC(=O)O` belongs 1.04; to `COCCc1nc2c([nH]1)c(=O)n(C)c(=O)n2C`, 1.02. Take `COc1ccc([Si](C)(C)[C@H]2[C@H](CCn3cc([C@H](O)c4ccccc4)nn3)O[C@@]3(C(=O)N(c4ccccc4)c4ccccc43)[C@@H]2C)cc1`: the relative growth stood at 1.18. The molecule `O=c1occ(CO)c(O)c1CN1CCCCC1` showed a relative growth of 1.01. Molecule `COCc1cn(CC[C@H]2CC[C@@H](NC(=O)CCN3CCCCC3)[C@H](CO)O2)nn1` displayed a relative growth of 0.998.

For `COc1c(O)cc2oc3cc(O)c(CC=C(C)C)c(O)c3c(=O)c2c1CC=C(C)C` [alpha-MANGOSTIN], the relative growth turned out to be 1.03.

`NC(=O)c1cc[n+](CC2=C(C(=O)[O-])N3C(=O)C(NC(=O)C(c4ccccc4)S(=O)(=O)[O-])C3SC2)cc1.[Na+]` (centres undefined) returned a relative growth of 0.903.
